Data from patent publication US9133208B2, “Radiolabelled rotenone derivatives and their use in SPECT imaging” (priority 2011, dated 2015).

Test system: rabbit hearts
Assay: Myocardial distribution in isolated retrograde perfused (Langendorff) rabbit heart
Set-up: species or system New Zealand White rabbits
Conditions: flow rate 1.7 ml/min/g LV, FIG. 9, qualitative
Experimental: Preparation of retrograde perfusion (Langendorff) was performed as previously described (R. C. Marshall, P. Powers-Risius, B. W. Reutter, S. E. Taylor, H. F. VanBrocklin, R. H. Huesman, T. F. Budinger J Nucl Med. 2001; 42:272-281, which is incorporated by reference herein) using hearts from 1.5-2.5 kg male New Zealand White rabbits (Charles River, Wilmington Mass.). Following an injection of heparin (5 mg/kg) and median sternotomy, hearts were excised keeping the ascending aorta and aortic branches, lungs and thymus intact. The hearts were immediately placed into an ice-cold bath containing modified Tyrode's solution ([…], 1 mM MgCl2, 28 mM NaHCO3, 0.44 mM NaH2PO4, 2.5 mM CaCl2, 6 mM KCl, 5 mM glucose, […] with 22 g/L BSA and aerated with 95% O2/5% CO2) and thymus and fatty tissue were quickly removed. The hearts were then suspended on an aortic cannula and perfused with pre-warmed modified Tyrode's buffer through a water jacketed, temperature regulated Langendorff perfusion system (Radnotti, Calif., USA) at a constant flow rate. […]
Following final preparation, the left ventricular balloon was inflated to achieve an end-diastolic pressure of approximately 8-10 mmHg with a constant systolic pressure held between 60-80 mm Hg. […] Perfusion and ventricular pressures were monitored throughout the experiment using a BioPac data acquisition system (BioPac, Montreal QC). […]

In the case of “^131I-albumin: reference tracer, non-diffusable tracer that remains in the intravascular space”, the “initial peak fractional venous appearance rate” value is reported as “higher venous effluent rate”.
